According to patent US9725465B2, “Biaryl acetamide compounds and methods of use thereof” (Ambit Biosciences Corporation, priority 2013, dated 2017):
Structures can show the parent of a compound that is named as a salt.

Tests used:
FLT3-ITD-D835V = FLT3-ITD-D835V (Homo sapiens (Human), UniProt P36888, D835V/INS600HVDFREYEYD); assay: pFLT3 MSD assay, Ba/F3 FLT3-ITD-D835V; format: cell-based; conditions: Ba/F3 FLT3-ITD-D835V cells, 2 hours, read-out: BaF3-FLT3-ITD-D835V pFlt3 IC50
FLT3-ITD-F691L = FLT3-ITD-F691L (Homo sapiens (Human), UniProt P36888, F691L/INS600HVDFREYEYD); assay: pFLT3 MSD assay, Ba/F3 FLT3-ITD-F691L; format: cell-based; conditions: Ba/F3 FLT3-ITD-F691L cells, 2 hours, read-out: BaF3-FLT3-ITD-F691L pFlt3 IC50

IC50 (FLT3-ITD-D835V)	IC50 (FLT3-ITD-F691L)	Compound
10 to 20 nM	< 10 nM	COc1cc2ncc(-c3ccc(CC(=O)Nc4cc(C(C)(C)C)no4)cc3)nc2cc1OC [Example 73, N-(3-(tert-butyl)isoxazol-5-yl)-2-(4-(6,7-dimethoxyquinoxalin-2-yl)phenyl)acetamide]
> 50 nM	20 to 50 nM	CNCc1n[nH]c2ncc(-c3ccc(CC(=O)Nc4cc(C(C)(C)C)on4)c(F)c3)cc12 [Example 57, N-(5-(tert-butyl)isoxazol-3-yl)-2-(2-fluoro-4-(3-((methylamino)methyl)-1H-pyrazolo[3,4-b]pyridin-5-yl)phenyl)acetamide]
20 to 50 nM	10 to 20 nM	COc1cc2ncc(-c3ccc(CC(=O)Nc4cc(C(C)(C)C)on4)cc3)cc2c(OC)c1OC [Example 116, N-(5-tert-butylisoxazol-3-yl)-2-[4-(5,6,7-trimethoxy-3-quinolyl)phenyl]acetamide]
< 10 nM	< 10 nM	COc1cc2nc(-c3ccc(CC(=O)Nc4cc(C(C)(C)C(F)(F)F)on4)c(F)c3)cnc2cc1OC1COC1 [Example 147, 2-[2-fluoro-4-[7-methoxy-6-(oxetan-3-yloxy)quinoxalin-2-yl]phenyl]-N-[5-(2,2,2-trifluoro-1,1-dimethyl-ethyl)isoxazol-3-yl]acetamide]
> 50 nM	> 50 nM	COc1cc2ncc(-c3ccc(CC(=O)Nc4cc(C(C)(C)C(F)(F)F)on4)c(F)c3)c(OC)c2cc1OC [Example 145, 2-[2-fluoro-4-(4,6,7-trimethoxy-3-quinolyl)phenyl]-N-[5-(2,2,2-trifluoro-1,1-dimethyl-ethyl)isoxazol-3-yl]acetamide]
20 to 50 nM	< 10 nM	COc1ccc2cc(-c3ccc(CC(=O)Nc4cc(C5(C(F)(F)F)CC5)on4)cc3)cnc2c1 [Example 2, 2-(4-(7-methoxyquinolin-3-yl)phenyl)-N-(5-(1-(trifluoromethyl)cyclopropyl)isoxazol-3-yl)acetamide]
> 50 nM	> 50 nM	COc1cc2nc(OC)c(-c3ccc(CC(=O)Nc4cc(C5(C(F)(F)F)CC5)on4)c(F)c3)nc2cc1OC [Example 124, 2-[2-fluoro-4-(3,6,7-trimethoxyquinoxalin-2-yl)phenyl]-N-[5-[1-(trifluoro-methyl)cyclopropyl]isoxazol-3-yl]acetamide]
< 10 nM	< 10 nM	CCOc1cc2ncc(-c3ccc(CC(=O)Nc4cc(C5(C(F)(F)F)CC5)on4)c(F)c3)nc2cc1OCC [Example 118, 2-[4-(6,7-diethoxyquinoxalin-2-yl)-2-fluoro-phenyl]-N-[5-[1-(trifluoromethyl)cyclo-propyl]isoxazol-3-yl]acetamide]
10 to 20 nM	< 10 nM	O=C(Cc1ccc(-c2cnc3ccncc3c2)cc1)Nc1cc(C2(C(F)(F)F)CC2)on1 [Example 12, 2-(4-(1,6-naphthyridin-3-yl)phenyl)-N-(5-(1-(trifluoromethyl)cyclopropyl)isoxazol-3-yl)acetamide]
< 10 nM	< 10 nM	CN(C)CCNC(=O)c1cc2cc(-c3ccc(CC(=O)Nc4cc(C5(C(F)(F)F)CC5)on4)c(F)c3)cnc2[nH]1 [Example 108, N-[2-(dimethylamino)ethyl]-5-[3-fluoro-4-[2-oxo-2-[[5-[1-(trifluoromethyl)cyclo-propyl]isoxazol-3-yl]amino]ethyl]phenyl]-1H-pyrrolo[2,3-b]pyridine-2-carboxamide]
< 10 nM	< 10 nM	COc1cc2nc(-c3ccc(CC(=O)Nc4cc(C5(C(F)(F)F)CC5)on4)c(F)c3)cnc2cc1OCCOC(=O)N(C)C [Example 136, 2-[2-[3-fluoro-4-[2-oxo-2-[[5-[1-(trifluoro-methyl)cyclopropyl]isoxazol-3-yl]amino]ethyl]phenyl]-7-methoxy-quinoxalin-6-yl]oxyethyl N,N-dimethylcarbamate]
< 10 nM	< 10 nM	COCCOc1cc2ncc(-c3ccc(CC(=O)Nc4cc(C(C)(C)C(F)(F)F)on4)c(F)c3)nc2cc1OC [Example 159, 2-[2-fluoro-4-[7-methoxy-6-(2-methoxy-ethoxy)quinoxalin-2-yl]phenyl]-N-[5-(2,2,2-trifluoro-1,1-dimethyl-ethyl)isoxazol-3-yl]acetamide]
< 10 nM	< 10 nM	Cc1n[nH]c2ncc(-c3ccc(CC(=O)Nc4cc(C(C)(C)C)on4)cc3)cc12 [Example 40, N-(5-(tert-butyl)isoxazol-3-yl)-2-(4-(3-methyl-1H-pyrazolo[3,4-b]pyridin-5-yl)phenyl)acetamide]
> 50 nM	20 to 50 nM	COc1cc2nc(C)c(-c3ccc(CC(=O)Nc4cc(C5(C(F)(F)F)CC5)on4)c(F)c3)nc2cc1OC [Example 169, 2-[4-(6,7-dimethoxy-3-methyl-quinoxalin-2-yl)-2-fluoro-phenyl]-N-[5-[1-(trifluoromethyl)cyclo-propyl]isoxazol-3-yl]acetamide]
< 10 nM	< 10 nM	CC(C)(c1cc(NC(=O)Cc2ccc(-c3cnc4[nH]nc(OCCOC(F)(F)F)c4c3)cc2F)no1)C(F)(F)F [Example 114, 2-[2-fluoro-4-[3-[2-(trifluoromethoxy)ethoxy]-1H-pyrazolo[3,4-b]pyridin-5-yl]phenyl]-N-[5-(2,2,2-trifluoro-1,1-dimethyl-ethyl)isoxazol-3-yl]acetamide]
< 10 nM	< 10 nM	O=C(Cc1ccc(-c2cnc3[nH]ccc3c2)cc1F)Nc1cc(C2(C(F)(F)F)CC2)on1 [Example 28, 2-(2-fluoro-4-(1H-pyrrolo[2,3-b]pyridin-5-yl)phenyl)-N-(5-(1-(trifluoromethyl)cyclopropyl)isoxazol-3-yl)acetamide]
< 10 nM	< 10 nM	CC(C)(c1cc(NC(=O)Cc2ccc(-c3cnc4[nH]ncc4c3)cc2)no1)C(F)(F)F [Example 44, 2-(4-(1H-pyrazolo[3,4-b]pyridin-5-yl)phenyl)-N-(5-(1,1,1-trifluoro-2-methylpropan-2-yl)isoxazol-3-yl)acetamide]
> 50 nM	> 50 nM	COc1cc2nc(C(N)=O)c(-c3ccc(CC(=O)Nc4cc(C5(C(F)(F)F)CC5)on4)c(F)c3)nc2cc1OC [Example 135, 3-[3-fluoro-4-[2-oxo-2-[[5-[1-(trifluoro-methyl)cyclopropyl]isoxazol-3-yl]amino]ethyl]phenyl]-6,7-dimethoxy-quinoxaline-2-carboxamide]
10 to 20 nM	< 10 nM	O=C(Cc1ccc(-c2cnc3cccnc3c2)cc1)Nc1cc(C2(C(F)(F)F)CC2)on1 [Example 11, 2-(4-(1,5-naphthyridin-3-yl)phenyl)-N-(5-(1-(trifluoromethyl)cyclopropyl)isoxazol-3-yl)acetamide]
10 to 20 nM	< 10 nM	COc1ccc2ncc(-c3ccc(CC(=O)Nc4cc(C5(C(F)(F)F)CC5)on4)cc3)nc2c1 [Example 23, 2-(4-(7-methoxyquinoxalin-2-yl)phenyl)-N-(5-(1-(trifluoromethyl)cyclopropyl)isoxazol-3-yl)acetamide]
< 10 nM	< 10 nM	COc1cc(OC)c2cc(-c3ccc(CC(=O)Nc4cc(C5(C(F)(F)F)CC5)on4)c(F)c3)cnc2c1 [Example 36, 2-(4-(5,7-dimethoxyquinolin-3-yl)-2-fluorophenyl)-N-(5-(1-(trifluoromethyl)cyclopropyl)isoxazol-3-yl)acetamide]
> 50 nM	20 to 50 nM	COc1cc2nc(CO)c(-c3ccc(CC(=O)Nc4cc(C5(C(F)(F)F)CC5)on4)c(F)c3)nc2cc1OC [Example 137, 2-[2-fluoro-4-[3-(hydroxymethyl)-6,7-dimethoxy-quinoxalin-2-yl]phenyl]-N-[5-[1-(trifluoro-methyl)cyclopropyl]isoxazol-3-yl]acetamide]
10 to 20 nM	10 to 20 nM	CC(C)(c1cc(NC(=O)Cc2ccc(-c3cnc4[nH]nc(OC5CCNCC5)c4c3)cc2)no1)C(F)(F)F [Example 48, 2-(4-(3-(piperidin-4-yloxy)-1H-pyrazolo[3,4-b]pyridin-5-yl)phenyl)-N-(5-(1,1,1-trifluoro-2-methylpropan-2-yl)isoxazol-3-yl)acetamide formate salt]
< 10 nM	< 10 nM	CC(C)(C)c1cc(NC(=O)Cc2ccc(-c3cnc4[nH]nc(CO)c4c3)cc2F)no1 [Example 55, N-(5-(tert-butyl)isoxazol-3-yl)-2-(2-fluoro-4-(3-(hydroxymethyl)-1H-pyrazolo[3,4-b]pyridin-5-yl)phenyl)acetamide]
< 10 nM	< 10 nM	CC(C)(C)c1cc(NC(=O)Cc2ccc(-c3cnc4[nH]cc(CO)c4c3)cc2)no1 [Example 60, N-(5-(tert-butyl)isoxazol-3-yl)-2-(4-(3-(hydroxymethyl)-1H-pyrrolo[2,3-b]pyridin-5-yl)phenyl)acetamide]
10 to 20 nM	< 10 nM	COc1cc2ncc(-c3ccc(CC(=O)Nc4cc(C(C)(C)C(F)(F)F)on4)c(F)c3)cc2c(OC)c1OC [Example 115, 2-[2-fluoro-4-(5,6,7-trimethoxy-3-quinolyl)phenyl]-N-[5-(2,2,2-trifluoro-1,1-dimethyl-ethyl)isoxazol-3-yl]acetamide]
< 10 nM	< 10 nM	CN(C)C(=O)c1cc2cc(-c3ccc(CC(=O)Nc4cc(C(C)(C)C)on4)cc3)cnc2[nH]1 [Example 49, 5-(4-(2-((5-(tert-butyl)isoxazol-3-yl)amino)-2-oxoethyl)phenyl)-N,N-dimethyl-1H-pyrrolo[2,3-b]pyridine-2-carboxamide]
> 50 nM	20 to 50 nM	CC(C)(c1cc(NC(=O)Cc2ccc(-c3cnc4c(N)cccc4c3)cc2F)no1)C(F)(F)F [Example 151, 2-[4-(8-amino-3-quinolyl)-2-fluoro-phenyl]-N-[5-(2,2,2-trifluoro-1,1-dimethyl-ethyl)isoxazol-3-yl]acetamide]
